{"source": "paper PMC3947039", "about": "(ACS chemical biology, 2013)", "origin": "cited, not measured here", "target": "MMP-3", "conditions": "read-out: Ki MMP-3; competitive; cited from earlier work", "data": [{"smiles": "Nc1ccc(Oc2ccc(S(=O)(=O)CC3CS3)cc2)cc1", "note": "(stereo not shown) [ND-322]", "values": [{"measurement": "Ki", "value": "23.4 ± 1.6", "unit": "µM"}]}]}
